Columns and labels:
[1] = system: MIA-PaCa-2 (MP2) shCtrl/shCav-1 cells; test: Uptake by direct fluorescence in MP2 shCtrl vs shCav-1 cells; type: cell-based; conditions: FITC-HSA (0.01%) pulsed 1 h
Description: (§1) Cells were plated on coverslips and treated with or without FITC-HAS, SN-38, or SSH20. Cells were pulsed either 1 hour with 0.1% FITC-HAS or 2 hours with 250 nM SN/38/SSH20 prior to fixation. When applicable, in order to remove membrane-bound albumin, two acid/salt washes were performed with 0.1M glycine and 0.1M NaCl, pH 3.02 for 2 minutes each, followed by two washes with phosphate buffer saline (PBS). Cells were then fixed with 2% paraformaldehyde for 15 minutes at room temperature and washed 1×PBS 2 times for 5 minutes each. Cells were incubated with 0.1% Triton-x-100 for 10 min on ice to permeabilize, then washed twice with 1×PBS prior to blocking with 3% bovine serum albumin in 1×PBS overnight at 4° C. In a humidified chamber, primary antibodies (1:50) in blocking buffer were added and incubated for 1 hour at 4° C., followed by three 10 minute rinses with blocking buffer. Secondary antibody (conjugated to Alexa Fluor 488, 1:1000) was added along with DAPI for 1 hour at room temperature. Cells were then rinsed, and coverslips were mounted onto slides and then sealed. Cells were then imaged with a confocal microscope with locked settings across the control and respective experimental conditions. For auto-fluorescence experiments with SN-30 and SSH20, images were taken at an emission wavelength of 543 nm. ImageJ was used to measure the fluorescence intensity of individual cells.

H23 shCtrl/shCav-1 cells = test: Uptake by direct fluorescence in H23 shCtrl vs shCav-1 cells; type: cell-based; conditions: FITC-HSA (0.01%) pulsed 1 h
Description: as §1

Substance: FITC-HSA: FITC-labeled human serum albumin used to measure albumin uptake
- albumin uptake in shCav-1 versus shCtrl cells (FITC fluorescence intensity) [1]: significant reduction of albumin uptake
- albumin uptake in shCav-1 versus shCtrl cells (FITC fluorescence intensity) (H23 shCtrl/shCav-1 cells): significant reduction of albumin uptake

Reference: US20240398786A1, “7-ETHYL-10-HYDROXY-CAMPTOTHECIN (SN-38) ALBUMIN CONJUGATES FOR TREATMENT OF CANCERS” (Ohio State Innovation Foundation, priority 2021, published 2024)
